Literature values in paper PMC4303307 (Biochemistry, 2014).

Biological target: T1, human γD-crystallin (HGD) (Homo sapiens, UniProt P07320)
T1 sequence (P07320 1-174): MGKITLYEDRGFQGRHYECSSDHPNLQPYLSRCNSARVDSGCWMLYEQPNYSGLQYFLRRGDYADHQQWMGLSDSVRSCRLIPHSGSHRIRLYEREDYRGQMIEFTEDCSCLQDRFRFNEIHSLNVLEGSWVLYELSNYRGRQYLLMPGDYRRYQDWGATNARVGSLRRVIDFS
Conditions: incubated at 55 °C for 16 h; cited from earlier work

B1: human αA-crystallin: parent protein of MAC; small heat-shock protein of the lens (protein, UniProt P02489 1-173, looked up)
Alpha-crystallin A chain: MDVTIQHPWFKRTLGPFYPSRLFDQFFGEGLFEYDLLPFLSSTISPYYRQSLFRTVLDSGISEVRSDRDKFVIFLDVKHFSPEDLTVKVQDDFVEIHGKHNERQDDHGYISREFHRRYRLPSNVDQSALSCSLSADGMLTFCGPKIQTGLDATHAERAIPVSREEKPTSAPSS
  HGD bound to human αA-crystallin: ≤ 20%
